From patent US20250313563A1, “GLYCOGEN SYNTHASE KINASE 3 INHIBITORS AND USES THEREOF” (The Broad Institute, Inc., priority 2022, published 2025)

Protein sequences, listed by entry. Tags and fused reporters are not part of them.
UniProt P49840, whole entry: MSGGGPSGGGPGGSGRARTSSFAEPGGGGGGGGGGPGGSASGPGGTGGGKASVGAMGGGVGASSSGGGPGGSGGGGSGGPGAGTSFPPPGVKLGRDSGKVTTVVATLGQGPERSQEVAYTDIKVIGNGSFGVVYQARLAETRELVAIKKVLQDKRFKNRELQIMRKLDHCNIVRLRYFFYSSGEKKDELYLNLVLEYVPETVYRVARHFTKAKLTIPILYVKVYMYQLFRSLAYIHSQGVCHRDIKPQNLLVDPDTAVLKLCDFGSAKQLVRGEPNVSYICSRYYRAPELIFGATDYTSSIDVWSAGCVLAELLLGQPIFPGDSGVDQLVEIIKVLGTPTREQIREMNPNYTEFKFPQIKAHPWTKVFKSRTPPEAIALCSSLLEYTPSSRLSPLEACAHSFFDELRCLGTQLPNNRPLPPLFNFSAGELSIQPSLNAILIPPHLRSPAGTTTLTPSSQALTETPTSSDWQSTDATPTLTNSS
UniProt P49841, whole entry: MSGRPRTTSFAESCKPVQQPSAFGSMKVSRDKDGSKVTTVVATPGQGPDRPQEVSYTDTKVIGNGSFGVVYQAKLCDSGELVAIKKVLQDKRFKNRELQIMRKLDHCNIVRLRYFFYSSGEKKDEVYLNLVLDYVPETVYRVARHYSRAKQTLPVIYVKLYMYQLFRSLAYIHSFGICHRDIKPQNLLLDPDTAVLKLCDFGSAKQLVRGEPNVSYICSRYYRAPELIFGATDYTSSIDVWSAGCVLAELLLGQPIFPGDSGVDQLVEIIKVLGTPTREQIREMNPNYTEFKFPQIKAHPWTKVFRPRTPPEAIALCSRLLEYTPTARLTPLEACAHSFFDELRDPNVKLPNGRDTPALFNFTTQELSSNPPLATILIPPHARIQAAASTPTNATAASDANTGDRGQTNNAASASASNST

What was measured:
[1] = target: GSK3α (GST-full length GSK3α) (Homo sapiens (Human), UniProt P49840); test: GSK3α TR-FRET kinase assay; assay type: biochemical
[2] = target: GSK3b (GST-full length GSK3b) (Homo sapiens (Human), UniProt P49841); test: GSK3b TR-FRET kinase assay; assay type: biochemical
[3] = read-out: GSK3-A TR-FRET BIOCHEMICAL (TR-FRET), GMean, IC50, 1 nM GSK3α, 4 μM ATP, 30 minute preincubation, geometric mean
[4] = read-out: GSK3-B TR-FRET BIOCHEMICAL (TR-FRET), GMean, IC50, 1 nM GSK3b, 2 μM ATP, 30 minute preincubation, geometric mean
[5] = read-out: GSK3-A (TR-FRET 1 mM ATP), GMean, IC50, 1 mM ATP, geometric mean
[6] = read-out: GSK3-A TR-FRET BIOCHEMICAL (TR-FRET), IC50, 1 nM GSK3α, 4 μM ATP, 30 minute preincubation (Table 16)
[7] = read-out: GSK3-B (TR-FRET 1 mM ATP), GMean, IC50, 1 mM ATP, geometric mean
[8] = read-out: GSK3-B TR-FRET BIOCHEMICAL (TR-FRET), IC50, 1 nM GSK3b, 2 μM ATP, 30 minute preincubation (Table 16)
[9] = read-out: GSK3-A TR-FRET BIOCHEMICAL (TR-FRET);, 1 nM GSK3α, 4 μM ATP, 30 minute preincubation, Table 16
[10] = read-out: GSK3-B TR-FRET BIOCHEMICAL (TR-FRET);, 1 nM GSK3b, 2 μM ATP, 30 minute preincubation, Table 16
[11] = read-out: GSK3-A TR-FRET BIOCHEMICAL (TR-FRET), IC50, 1 nM GSK3α, 4 μM ATP, 30 minute preincubation
[12] = read-out: GSK3-B TR-FRET BIOCHEMICAL (TR-FRET), IC50, 1 nM GSK3b, 2 μM ATP, 30 minute preincubation

Compound: CCC1(c2cccc(N(C)c3ncccn3)c2)C2=C(CC(C)(C)NC2=O)Nc2n[nH]c(C)c21 (centres unmarked) [Compound 949182]
- IC50 [1, 3]: < 100 nM
- IC50 [2, 4]: < 100 nM

Compound: CC[C@]1(c2cccc(N(C)c3ncccn3)c2)C2=C(CC(C)(C)NC2=O)Nc2n[nH]c(F)c21
- IC50 [1, 6]: 100 to 1000 nM
- IC50 [2, 8]: > 5000 nM

Compound: CCC1(c2cccc(C(F)(F)F)c2)C2=C(CCN(c3ccccc3)C2=O)Nc2n[nH]cc21 (centres unmarked) [Compound 929474]
- IC50 [1, 11]: < 100 nM
- IC50 [2, 12]: 100 to 1000 nM

Compound: CC[C@]1(c2cccc(-c3cnn(C)c3)c2)C2=C(CC(C)(C)CC2=O)Nc2n[nH]c(C(F)(F)F)c21
- IC50 [1, 5]: < 100 nM
- IC50 [1, 3]: < 100 nM
- IC50 [2, 7]: < 100 nM
- IC50 [2, 4]: < 100 nM

Compound: CC[C@@]1(c2cccc(C(F)(F)F)c2)C2=C(CCN(Cc3ccccc3)C2=O)Nc2n[nH]cc21
- IC50 [1, 11]: 100 to 1000 nM
- IC50 [2, 12]: 1000 to 5000 nM

Compound: CCC1(c2cccc(-c3cc(C)ncc3C)c2)C2=C(CC(C)(C)CC2=O)Nc2n[nH]c(C(F)(F)F)c21 (centres unmarked) [Compound 947363]
- IC50 [1, 9]: < 100 nM
- IC50 [2, 10]: < 100 nM

Compound: CC[C@@]1(c2cccc(C(F)(F)F)c2)C2=C(CCN(c3ccc(OC)cc3)C2=O)Nc2n[nH]c(C)c21
- IC50 [1, 3]: < 100 nM
- IC50 [2, 4]: 100 to 1000 nM

Compound: CC[C@@]1(c2cccc(C(F)(F)F)c2)C2=C(C[C@H](c3ccccc3)NC2=O)Nc2n[nH]cc21
- IC50 [1, 11]: 1000 to 5000 nM
- IC50 [2, 12]: > 5000 nM

Compound: CC[C@]1(c2cccc(-c3c(C)c(C)nn3C)c2)C2=C(CC(C)(C)NC2=O)Nc2n[nH]cc21
- IC50 [1, 6]: < 100 nM
- IC50 [2, 8]: 100 to 1000 nM

Compound: CCC1(c2cccc(S(C)(=O)=O)c2)C2=C(CC(C)(C)NC2=O)Nc2n[nH]cc21 (centres unmarked)
- IC50 [1, 11]: < 100 nM
- IC50 [2, 12]: < 100 nM

Compound: CCC1(c2cccc(-c3cnn(C)c3)c2)C2=C(CC(C)(C)CC2=O)Nc2n[nH]c(C)c21 (centres unmarked)
- IC50 [1, 6]: < 100 nM
- IC50 [2, 8]: 100 to 1000 nM

Compound: CC[C@]1(c2cccc(-c3cn(C)nc3C(F)(F)F)c2)C2=C(CC(C)(C)NC2=O)Nc2n[nH]cc21
- IC50 [1, 5]: < 100 nM
- IC50 [1, 6]: < 100 nM
- IC50 [2, 7]: < 100 nM
- IC50 [2, 8]: < 100 nM

Compound: CCC1(c2cccc(C3CC4CCC(C3)O4)c2)C2=C(CC(C)(C)CC2=O)Nc2n[nH]cc21 (centres unmarked)
- IC50 [1, 6]: 100 to 1000 nM
- IC50 [2, 8]: 100 to 1000 nM

Compound: CCC1(c2cccc(C(F)(F)F)c2)C2=C(CCN(c3cncnc3)C2=O)Nc2n[nH]cc21 (centres unmarked)
- IC50 [1, 3]: < 100 nM
- IC50 [2, 4]: 100 to 1000 nM

Compound: CC[C@H]1CCN1c1cccc([C@]2(CC)C3=C(CC(C)(C)CC3=O)Nc3n[nH]cc32)c1
- IC50 [1, 6]: < 100 nM
- IC50 [2, 8]: 100 to 1000 nM

Compound: CC[C@@]1(c2cccc(C(F)(F)F)c2)C2=C(C[C@@H](C)CC2=O)Nc2n[nH]cc21
- IC50 [1, 5]: 100 to 1000 nM
- IC50 [1, 3]: < 100 nM
- IC50 [2, 7]: 1000 to 5000 nM
- IC50 [2, 4]: < 100 nM

Compound: CC[C@@H]1CCN1c1cccc([C@]2(CC)C3=C(CC(C)(C)CC3=O)Nc3n[nH]cc32)c1
- IC50 [1, 6]: < 100 nM
- IC50 [2, 8]: 100 to 1000 nM

Compound: CC[C@@]1(c2cccc(-c3cc(C)nnc3C)c2)C2=C(CC(C)(C)NC2=O)Nc2n[nH]c(C)c21
- IC50 [1, 6]: < 100 nM
- IC50 [2, 8]: 100 to 1000 nM

Other lines, results leading:

- IC50 [1, 5]: 100 to 1000 nM
- IC50 [1, 6]: < 100 nM
- IC50 [2, 7]: > 5000 nM
- IC50 [2, 8]: 100 to 1000 nM
Compound: CC[C@@]1(c2cccc(-c3ccnc(OC)c3)c2)C2=C(CC(C)(C)CC2=O)Nc2n[nH]cc21

- IC50 [1, 9]: 100 to 1000 nM
- IC50 [2, 10]: 1000 to 5000 nM
Compound: CC[C@]1(c2cccc(-c3ccncc3CO)c2)C2=C(CC(C)(C)CC2=O)Nc2n[nH]cc21

- IC50 [1, 9]: < 100 nM
- IC50 [2, 10]: 100 to 1000 nM
Compound: CCCc1cc(-c2cccc(C3(CC)C4=C(CC(C)(C)CC4=O)Nc4n[nH]cc43)c2)ccn1 (centres unmarked)

- IC50 [1, 3]: < 100 nM
- IC50 [2, 4]: 100 to 1000 nM
Compound: CC[C@@]1(c2cccc(Br)c2)C2=C(C[C@@H](C)CC2=O)Nc2n[nH]cc21

- IC50 [1, 6]: < 100 nM
- IC50 [2, 8]: 100 to 1000 nM
Compound: CC[C@]1(c2cccc(-c3ccnc(C(F)F)c3)c2)C2=C(CC(C)(C)NC2=O)Nc2n[nH]cc21

- IC50 [1, 3]: < 100 nM
- IC50 [2, 4]: 100 to 1000 nM
Compound: CCC1(c2cccc(-c3ccncc3)c2)C2=C(CC(C)CC2=O)Nc2n[nH]cc21 (centres unmarked)

- IC50 [1, 5]: 100 to 1000 nM
- IC50 [1, 6]: < 100 nM
- IC50 [2, 7]: > 5000 nM
- IC50 [2, 8]: < 100 nM
Compound: CC[C@]1(c2cccc(-c3ccnc4cccnc34)c2)C2=C(CC(C)(C)NC2=O)Nc2n[nH]cc21

- IC50 [1, 9]: < 100 nM
- IC50 [2, 10]: 100 to 1000 nM
Compound: CC[C@@]1(c2cccc(-c3ccnc(C)c3)c2)C2=C(Nc3n[nH]cc31)[C@@H]1CC[C@@H](C1)C2=O

- IC50 [1, 5]: < 100 nM
- IC50 [1, 9]: < 100 nM
- IC50 [2, 7]: 100 to 1000 nM
- IC50 [2, 10]: < 100 nM
Compound: CCn1nccc1-c1cccc([C@@]2(CC)C3=C(CC(C)(C)CC3=O)Nc3n[nH]cc32)c1

- IC50 [1, 6]: < 100 nM
- IC50 [2, 8]: 100 to 1000 nM
Compound: CC[C@]1(c2cccc(-c3ccnn3C)c2)C2=C(CC(C)(C)CC2=O)Nc2n[nH]cc21

Read-outs that look alike come from different tables or passages of the source. One block for each compound: values may come before it.
